The values that follow are results of earlier work, collected in patent US20200224136A1, “INTESTINE-CHIP: DIFFERENTIAL GENE EXPRESSION MODEL” (priority 2019, published 2020).

The data set concerns Caco-2 cell monolayers. The following applies: cited from earlier work.

For Larazotide acetate, the “AT-1002-induced TEER reduction and tight junction opening in Caco-2 cells” value is listed as “rescued”; the “translocation of a gliadin 13-mer peptide across Caco-2 cell monolayers” value is “inhibited”.
